Data on two molecules can be found in BindingDB's records for 2547074.

Protein sequences, listed by entry. Tags and fused reporters are not part of them.
UniProt Q99720, whole entry, looked up: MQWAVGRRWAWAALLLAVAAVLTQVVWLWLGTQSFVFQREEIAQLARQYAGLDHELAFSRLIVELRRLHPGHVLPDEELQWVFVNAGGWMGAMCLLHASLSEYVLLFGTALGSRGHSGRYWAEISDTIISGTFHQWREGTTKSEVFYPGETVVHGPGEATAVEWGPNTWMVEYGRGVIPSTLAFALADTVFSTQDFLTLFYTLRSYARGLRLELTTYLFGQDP

SMILES strings stand for the structures.

The target in assay [1] is T1, Sigma non-opioid intracellular receptor 1 (Homo sapiens, UniProt Q99720). As to the kind of experiment: Compound was evaluated for binding affinity towards sigma opioid receptor using [3H]DTG in guinea pig ileum.
Assay [2] deals with T1, Sigma non-opioid intracellular receptor 1. Nature of the assay: (§1) Compound was evaluated for binding affinity towards sigma opioid receptor using [3H](+)-3-PPP in guinea pig ileum.
For assay [3] the target is unchanged. As to the kind of experiment: ChEBML_201276. The method, then: as §1

What is called Ki is the dissociation constant of the complex between target and ligand, obtained from inhibition or displacement. A low value points to higher affinity. As for `CN(C(=O)Cc1ccc(Cl)c(Cl)c1)[C@H]1CCCC[C@H]1N1CCCC1`, the Ki was determined as 250 nM in assay [1] and 81 nM in assay [2]. For the molecule `CN(C(=O)Cc1ccc(Cl)c(Cl)c1)[C@H]1CCCC[C@@H]1N1CCCC1`, the inhibitory constant (Ki) in assay [3] is 594 nM.
